Assays:
Assay type in all cases: in vivo, Long Evans rat
[1] = test system: ic-STZ-induced neurodegeneration; assay: ic-STZ ± PPAR agonist: brain histopathology (H&E); settings: 4 weeks after ic-STZ ± single IP PPAR agonist
[2] = test system: GFAP, HNE, 8-OHdG, ChAT immunoreactivity; assay: ic-STZ ± PPAR agonist: immunohistochemical staining of brain; settings: temporal cortex
learning and memory = assay: Morris Water Maze learning and memory test; settings: Trial Day 4 / final day of testing
[3] = test system: GFAP, GSK-3β, phospho-GSK-3β, ubiquitin, tau, phospho-tau, β-actin; assay: ic-STZ model: Western blot analysis of temporal lobe tissue; settings: 40 mg/kg ic-STZ, Mean±S.E.M.
[4] = test system: temporal lobe gene expression; assay: ic-STZ model: real time quantitative RT-PCR of brain mRNA
[5] = ic-STZ rat pup model: blood glucose, body and brain weight, pancreas and brain histopathology; settings: preliminary studies
brain gene expression = assay: ic-STZ ± PPAR agonist: real time quantitative RT-PCR of temporal lobe, hypothalamus, cerebellum; settings: cerebellar cortex
[6] = test system: PPAR-α, PPAR-δ, PPAR-γ mRNA; assay: PPAR gene expression levels in the brain (real time quantitative RT-PCR); settings: ic-STZ treated brain, mean ±S.E.M.
[7] = test system: phospho-GSK-3β, GSK-3β, phospho-Tau, Tau; assay: ic-STZ ± PPAR agonist: Western blot analysis of GSK-3β and Tau; settings: hypothalamus
[8] = temporal lobe, day 14, normalized to 18S

In the case of `CN(N=O)C(=O)NC1C(O)OC(CO)C(O)C1O` (stereo not drawn) [STZ], the “preservation of cerebellar cortical architecture (H&E)” value [1] is reported as “atrophy with cystic degeneration of the cerebellar cortex”, the “preservation of hippocampi and temporal lobes (H&E)” value [1] is reported as “degeneration of the hippocampal formation” and the 8-OHdG immunoreactivity [2] is reported as “Increased”. For the same compound, the GFAP immunoreactivity [2] was “Increased”, the HNE immunoreactivity [2] was “Increased” and the “mean latency period to arrive at the hidden platform relative to control” value (learning and memory) was “significantly higher”. The p-GSK-3β/GSK-3β ratio [3] was 0.0204 ± 0.0022, the “APP mRNA” value ([4]; day 14) was “significantly higher” and the “IRS-1 mRNA” value ([4]; day 14) was “significantly reduced relative to control”. For the same compound, the “tau mRNA” value ([4]; day 14) was “significantly higher”, the “IGF-I mRNA” value ([4]; temporal cortex, day 14) was “similarly abundant” and the “IGF-I receptor mRNA” value ([4]; temporal cortex, day 14) was “significantly reduced”. For the same compound, the “IGF-II mRNA” value ([4]; temporal cortex, day 14) was “significantly reduced”, the “insulin mRNA” value ([4]; temporal cortex, day 14) was “significantly reduced” and the “insulin receptor mRNA” value ([4]; temporal cortex, day 14) was “significantly reduced”. For the same compound, the “AChE mRNA” value ([4]; temporal lobe) was “increased”, the “ChAT mRNA” value ([4]; temporal lobe) was “significantly reduced” and the “AIF-1 (microglia) gene expression” value [4, 8] was “increased”. For the same compound, the “GFAP (astrocytes) gene expression” value [4, 8] was “increased”, the “Hu (neurons) gene expression” value [4, 8] was “significantly reduced” and the “MAG-1 (oligodendroglia) gene expression” value [4, 8] was “significantly reduced”. The “STZ-mediated neurodegeneration in dose finding” value ([5]; doses from 5 to 70 mg/kg ic) was “neurodegeneration at all doses tested”, the “dose giving consistent neurodegeneration results” value ([5]; ic) was “at least 25 mg/kg” and the “APP mRNA relative to control” value (brain gene expression) was “increased”. For the same compound, the “Tau mRNA relative to control” value (brain gene expression) was “significantly reduced”, the “PPAR-α mRNA/18S ratio” value [6] was 0.036 ± 0.0021 ×10^−3 and the “PPAR-γ mRNA/18S ratio” value [6] was 0.182 ± 0.017 ×10^−3. The “PPAR-δ mRNA/18S ratio” value [6] was 0.258 ± 0.034 ×10^−3, the “pTau/Tau ratio relative to control” value [7] was “significantly higher” and the “phospho-Tau level relative to control” value [7] was “significantly higher”.
